Assay results as given in patent US9346815B2, “5-chloro-2-difluoromethoxyphenyl pyrazolopyrimidine compounds, compositions and methods of use thereof” (Genentech, Inc., priority 2014, dated 2016).

Amino acid sequences for entries named in this document (tags omitted). Residues count along the entry.
UniProt O60674, 849-1124: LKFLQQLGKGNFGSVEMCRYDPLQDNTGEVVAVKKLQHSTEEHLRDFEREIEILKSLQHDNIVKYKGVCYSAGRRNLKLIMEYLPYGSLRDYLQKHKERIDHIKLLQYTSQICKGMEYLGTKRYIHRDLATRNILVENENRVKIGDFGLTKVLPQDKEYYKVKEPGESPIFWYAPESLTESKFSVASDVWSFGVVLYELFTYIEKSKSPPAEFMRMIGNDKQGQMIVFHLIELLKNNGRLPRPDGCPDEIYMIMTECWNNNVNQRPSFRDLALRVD
UniProt P23458, 875-1153: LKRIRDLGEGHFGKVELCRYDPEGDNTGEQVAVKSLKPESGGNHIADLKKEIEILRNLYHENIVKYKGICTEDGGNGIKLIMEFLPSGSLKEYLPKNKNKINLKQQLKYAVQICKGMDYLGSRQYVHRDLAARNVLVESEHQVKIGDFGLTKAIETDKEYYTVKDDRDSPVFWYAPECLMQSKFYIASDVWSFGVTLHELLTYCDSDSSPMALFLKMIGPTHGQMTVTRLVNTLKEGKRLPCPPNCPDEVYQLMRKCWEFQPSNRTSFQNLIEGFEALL

Target: isolated recombinant JAK2 kinase domain (Homo sapiens (Human), UniProt O60674)
Experiment: JAK2 enzyme assay (Caliper LabChip, peptide phosphorylation)
Type: biochemical
Conditions: 25 μM ATP

SMILES | Ki
CCN[C@@H](C)Cn1cc(NC(=O)c2cnn3cccnc23)c(-c2cc(Cl)ccc2OC(F)F)n1 [Example 371, N-[3-[5-chloro-2-(difluoromethoxy)phenyl]-1-[(2S)-2-(ethylamino)propyl]-1H-pyrazol-4-yl]pyrazolo[1,5-a]pyrimidine-3-carboxamide] | 1.19 nM
CN(C)C1CN(C(=O)Cn2cc(NC(=O)c3c(N)nn4cccnc34)c(-c3cc(Cl)ccc3OC(F)F)n2)C1 [Example 138, 2-amino-N-[3-[5-chloro-2-(difluoromethoxy)phenyl]-1-[2-[3-(dimethylamino)azetidin-1-yl]-2-oxo-ethyl]pyrazol-4-yl]pyrazolo[1,5-a]pyrimidine-3-carboxamide] | 0.26 nM
COC(=O)CCN1CCN(C(=O)Cn2cc(NC(=O)c3cnn4cccnc34)c(-c3cc(Cl)ccc3OC(F)F)n2)CC1 [Example 331, methyl 3-[4-(2-[3-[5-chloro-2-(difluoromethoxy)phenyl]-4-[pyrazolo[1,5-a]pyrimidine-3-amido]-1H-pyrazol-1-yl]acetyl)piperazin-1-yl]propanoate] | 0.77 nM
NC[C@@H]1CCCN1C(=O)Cn1cc(NC(=O)c2cnn3cccnc23)c(-c2cc(Cl)ccc2OC(F)F)n1 [Example 81, N-[1-[2-[(2S)-2-(aminomethyl)pyrrolidin-1-yl]-2-oxo-ethyl]-3-[5-chloro-2-(difluoromethoxy)phenyl]pyrazol-4-yl]pyrazolo[1,5-a]pyrimidine-3-carboxamide] | 3.24 nM
O=C(Nc1cn(Cc2cn(C3CCN(C4CCOCC4)CC3)nn2)nc1-c1cc(Cl)ccc1OC(F)F)c1cnn2cccnc12 [Example 457, N-(3-(5-chloro-2-(difluoromethoxy)phenyl)-1-((1-(1-(tetrahydro-2H-pyran-4-yl)piperidin-4-yl)-1H-1,2,3-triazol-4-yl)methyl)-1H-pyrazol-4-yl)pyrazolo[1,5-a]pyrimidine-3-carboxamide] | 0.26 nM
CN(C1CCN(C(=O)Cn2cc(NC(=O)c3cnn4cccnc34)c(-c3cc(Cl)ccc3OC(F)F)n2)CC1)C1COC1 [Example 459, N-(3-(5-chloro-2-(difluoromethoxy)phenyl)-1-(2-(4-(methyl(oxetan-3-yl)amino)piperidin-1-yl)-2-oxoethyl)-1H-pyrazol-4-yl)pyrazolo[1,5-a]pyrimidine-3-carboxamide] | 0.72 nM
CN1CC2(CCN(C(=O)Cn3cc(NC(=O)c4cnn5cccnc45)c(-c4cc(Cl)ccc4OC(F)F)n3)CC2)C1 [Example 218, N-[3-[5-chloro-2-(difluoromethoxy)phenyl]-1-[2-(2-methyl-2,7-diazaspiro[3.5]nonan-7-yl)-2-oxo-ethyl]pyrazol-4-yl]pyrazolo[1,5-a]pyrimidine-3-carboxamide] | 3.08 nM
O=C(Nc1cn([C@@H]2CNCC[C@H]2O)nc1-c1cc(Cl)ccc1OC(F)F)c1cnn2cccnc12 [Example 360, N-[3-[5-chloro-2-(difluoromethoxy)phenyl]-1-[(3R,4R)-4-hydroxypiperidin-3-yl]-1H-pyrazol-4-yl]pyrazolo[1,5-a]pyrimidine-3-carboxamide] | 1.7 nM
CN(C)C(=O)CNC1CCN(C(=O)Cn2cc(NC(=O)c3cnn4cccnc34)c(-c3cc(Cl)ccc3OC(F)F)n2)CC1 [Example 401, N-(3-(5-chloro-2-(difluoromethoxy)phenyl)-1-(2-(4-(2-(dimethylamino)-2-oxoethylamino)piperidin-1-yl)-2-oxoethyl)-1H-pyrazol-4-yl)pyrazolo[1,5-a]pyrimidine-3-carboxamide] | 2.03 nM

Target: isolated recombinant JAK1 kinase domain (Homo sapiens (Human), UniProt P23458)
Experiment: JAK1 enzyme assay (Caliper LabChip, peptide phosphorylation)
Type: biochemical
Conditions: 25 μM ATP

SMILES | Ki
CCOC(=O)CNC1CCN(C(=O)Cn2cc(NC(=O)c3cnn4cccnc34)c(-c3cc(Cl)ccc3OC(F)F)n2)CC1 [Example 364, ethyl 2-[[1-(2-[3-[5-chloro-2-(difluoromethoxy)phenyl]-4-[pyrazolo[1,5-a]pyrimidine-3-amido]-1H-pyrazol-1-yl]acetyl)piperidin-4-yl]amino]acetate] | 0.77 nM
CN1C[C@@H]2C[C@H]1CN2C(=O)Cn1cc(NC(=O)c2c(N)nn3cccnc23)c(-c2cc(Cl)ccc2OC(F)F)n1 [Example 250, 2-amino-N-[3-[5-chloro-2-(difluoromethoxy)phenyl]-1-[2-[(1S,4S)-5-methyl-2,5-diazabicyclo[2.2.l]heptan-2-yl]-2-oxo-ethyl]pyrazol-4-yl]pyrazolo[1,5-a]pyrimidine-3-carboxamide] | 1.39 nM
Nc1nn2cccnc2c1C(=O)Nc1cn(CC(=O)N2CC[C@H](O)C2)nc1-c1cc(Cl)ccc1OC(F)F [Example 270, 2-amino-N-[3-[5-chloro-2-(difluoromethoxy)phenyl]-1-[2-[(3S)-3-hydroxypyrrolidin-1-yl]-2-oxo-ethyl]pyrazol-4-yl]pyrazolo[1,5-a]pyrimidine-3-carboxamide] | 0.24 nM
CCOC(=O)CN1CCN(C(=O)Cn2cc(NC(=O)c3cnn4cccnc34)c(-c3cc(Cl)ccc3OC(F)F)n2)CC1 [Example 397, ethyl 2-[4-(2-[3-[5-chloro-2-(difluoromethoxy)phenyl]-4-[pyrazolo[1,5-a]pyrimidine-3-amido]-1H-pyrazol-1-yl]acetyl)piperazin-1-yl]acetate] | 0.28 nM
O=C(Nc1cn(CC(=O)N2CCC3(CNC3)C2)nc1-c1cc(Cl)ccc1OC(F)F)c1cnn2cccnc12 [Example 219, N-[3-[5-chloro-2-(difluoromethoxy)phenyl]-1-[2-(2,6-diazaspiro[3.4]octan-6-yl)-2-oxo-ethyl]pyrazol-4-yl]pyrazolo[1,5-a]pyrimidine-3-carboxamide] | 0.56 nM
O=C(Nc1cn(CC(=O)N2CCCCC2)nc1-c1cc(Cl)ccc1OC(F)F)c1cnn2cccnc12 [Example 308, N-[3-[5-chloro-2-(difluoromethoxy)phenyl]-1-[2-oxo-2-(1-piperidyl)ethyl]pyrazol-4-yl]pyrazolo[1,5-a]pyrimidine-3-carboxamide] | 0.24 nM
Nc1nn2cccnc2c1C(=O)Nc1cn(C2CCCNCC2)nc1-c1cc(Cl)ccc1OC(F)F (stereo not drawn) [Example 171, 2-amino-N-[1-(azepan-4-yl)-3-[5-chloro-2-(difluoromethoxy)phenyl]pyrazol-4-yl]pyrazolo[1,5-a]pyrimidine-3-carboxamide] | 0.72 nM
CCN[C@@H](C)Cn1cc(NC(=O)c2cnn3cccnc23)c(-c2cc(Cl)ccc2OC(F)F)n1 [Example 371, N-[3-[5-chloro-2-(difluoromethoxy)phenyl]-1-[(2S)-2-(ethylamino)propyl]-1H-pyrazol-4-yl]pyrazolo[1,5-a]pyrimidine-3-carboxamide] | 1.14 nM
CN(C)C(=O)N1CCC(CN2C[C@@H]3CN(C(=O)Cn4cc(NC(=O)c5cnn6cccnc56)c(-c5cc(Cl)ccc5OC(F)F)n4)C[C@@H]3C2)CC1 [Example 36, N-[1-[2-[(3aR,6aS)-2-[[1-(dimethylcarbamoyl)-4-piperidyl]methyl]-1,3,3a,4,6,6a-hexahydropyrrolo[3,4-c]pyrrol-5-yl]-2-oxo-ethyl]-3-[5-chloro-2-(difluoromethoxy)phenyl]pyrazol-4-yl]pyrazolo[1,5-a]pyrimidine-3-carboxamide] | 0.84 nM
Nc1nn2cccnc2c1C(=O)Nc1cn(CC(=O)N2C[C@H]3CN(CC4CC4)C[C@H]3C2)nc1-c1cc(Cl)ccc1OC(F)F [Example 57, N-[1-[2-[(3aS,6aR)-2-(cyclopropylmethyl)-1,3,3a,4,6,6a-hexahydropyrrolo[3,4-c]pyrrol-5-yl]-2-oxo-ethyl]-3-[5-chloro-2-(difluoromethoxy)phenyl]pyrazol-4-yl]-2-amino-pyrazolo[1,5-a]pyrimidine-3-carboxamide] | 0.59 nM
O=C(Nc1cn([C@H]2CNCC[C@@H]2O)nc1-c1cc(Cl)ccc1OC(F)F)c1cnn2cccnc12 [Example 361, N-[3-[5-chloro-2-(difluoromethoxy)phenyl]-1-[(3S,4S)-4-hydroxypiperidin-3-yl]-1H-pyrazol-4-yl]pyrazolo[1,5-a]pyrimidine-3-carboxamide] | 2.94 nM
O=C(CN1CCCCC1)Cn1cc(NC(=O)c2cnn3cccnc23)c(-c2cc(Cl)ccc2OC(F)F)n1 [Example 418, N-(3-(5-chloro-2-(difluoromethoxy)phenyl)-1-(2-oxo-3-(piperidin-1-yl)propyl)-1H-pyrazol-4-yl)pyrazolo[1,5-a]pyrimidine-3-carboxamide] | 2.43 nM
N#CC1CCN(C2CCN(C(=O)Cn3cc(NC(=O)c4cnn5cccnc45)c(-c4cc(Cl)ccc4OC(F)F)n3)CC2)C1 (stereo not drawn) [Example 409, N-(3-(5-chloro-2-(difluoromethoxy)phenyl)-1-(2-(4-(3-cyanopyrrolidin-1-yl)piperidin-1-yl)-2-oxoethyl)-1H-pyrazol-4-yl)pyrazolo[1,5-a]pyrimidine-3-carboxamide] | 0.36 nM
N#CC1(c2ccccc2)CCN(C(=O)Cn2cc(NC(=O)c3cnn4cccnc34)c(-c3cc(Cl)ccc3OC(F)F)n2)CC1 [Example 281, N-[3-[5-chloro-2-(difluoromethoxy)phenyl]-1-[2-(4-cyano-4-phenyl-1-piperidyl)-2-oxo-ethyl]pyrazol-4-yl]pyrazolo[1,5-a]pyrimidine-3-carboxamide] | 0.48 nM
O=C(Nc1cn(CCNCc2cccnc2)nc1-c1cc(Cl)ccc1OC(F)F)c1cnn2cccnc12 [Example 368, N-[3-[5-chloro-2-(difluoromethoxy)phenyl]-1-[2-[(pyridin-3-ylmethyl)amino]ethyl]-1H-pyrazol-4-yl]pyrazolo[1,5-a]pyrimidine-3-carboxamide] | 0.72 nM
